Screening results: PubChem, National Center for Advancing Translational Sciences (NCATS)
TDP1 block: inhibitors of human tyrosyl-DNA phosphodiesterase TDP1; recombinant TDP1, AlphaScreen DNA substrate cleavage; Potency, µM (top dose mostly 130 µM), for the others: at the highest dose activity change, negative = inhibition, usual class: inhibitors; actives 0.28% (n = 350,000); AID 485290; also: potency is read from the fitted curve at half-maximal effect; % is scaled to controls: 0 for no effect and ±100 for the full control effect; nearly all actives have a fitted effect of over 40% in size
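Enzyme-compound mixtures sat 15 min at room temperature, followed by a 5 min reaction with 15 nM final substrate and 10 min with AlphaScreen beads. Recombinant human Tdp1 was used at 1 nM final.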
uPA generation: inhibitors of cell surface uPA generation; cell surface uPA generation assay, qHTS; Potency, µM (highest dose often 38.3 µM), inactives show top-dose activity change, negative = inhibition, most hits filed as inhibitors; actives 0.31% (n = 330,000); AID 540303; active = well fitted inhibition curve with a large enough effect; inconclusive = small, poorly fitted or top-dose-only effect; inactive = no such curve, though single readings can be large or run the other way; tested in mouse RAW 264.7 cells; also: potency is read from the fitted curve at half-maximal effect; % is scaled to controls: 0 for no effect and ±100 for the full control effect; nearly all actives have a fitted effect of over 55% in size
miR-21 reporter: raises the signal of a miR-21 reporter | AID 2288 | 340,000 tested, under 10 active | Potency, µM (series often up to 38.3 µM), without a hit: at the highest dose reporter change, positive = more light | HeLa miR-21 FLuc reporter, luciferase, 48 h; active = well fitted rising curve with a large enough effect; inconclusive = small, poorly fitted or top-dose-only effect; inactive = no such curve, though single readings can be large or run the other way;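 further: % of control where 0% means no effect; miR-21 action dims this reporter so a rising signal means less miR-21 action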
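HeLa cells endogenously expressing miR-21, stably carrying CMV-driven firefly luciferase with a downstream miR-21 binding site, 2000 cells/well. Titrations up to approximately 40 uM, 48 hours; luciferase luminescence read.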
DT40 TDP1 CPT: growth inhibition of DT40 Tdp1-/-;hTDP1 cells with camptothecin (screen for TDP1 inhibitors). chicken DT40 Tdp1-/-;hTDP1 cells + 20 nM CPT, ATP luminescence, 48 h. Potency, µM (top dose mostly 46.2 µM), for inactives: at the top dose activity change, negative = growth inhibition, hits mostly inhibitors. actives 12% (n = 420,000). AID 686979; also: potency is read from the fitted curve at half-maximal effect; % is scaled to controls: 0 for no effect and ±100 for the full control effect; nearly all actives have a fitted effect of over 55% in size
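Cell growth measured by CellTiter-Glo luminescence after a minimum 48 h, 37 C compound exposure with 20 nM CPT in Tdp1-knockout DT40 cells stably expressing hTDP1, seeded 400/well; qHTS titration format.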
DT40 TDP1 no CPT: qHTS for Inhibitors of human tyrosyl-DNA phosphodiesterase 1 (TDP1): qHTS in cells in absence of CPT | DT40 Tdp1-/- hTDP1 cells, no CPT, ATP luminescence, 48 h | actives 15% (n = 420,000) | Potency, µM (titrated, usually from 46.2 µM), for the others: at the top dose activity change, negative = growth inhibition, usual class: inhibitors | AID 686978, 2013; also: potency is read from the fitted curve at half-maximal effect; % is scaled to controls: 0 for no effect and ±100 for the full control effect; nearly all actives have a fitted effect of over 55% in size
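Growth kinetics read by CellTiter-Glo luminescence after ≥48 hr at 37 °C. Cells: DT40 Tdp1-/- stably carrying human TDP1, 400 per well, compound exposure in the absence of CPT (DMSO vehicle).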
* hit, by the source's call; ? = inconclusive; nt = not tested or not shown; [ ] = remark or other dose. Most compounds without a hit are left out; they make up all but 16% or so of the library. Unless noted, calls follow the shape of the dose curve; as a rule, active = well fitted curve in the direction sought with a large enough effect; inconclusive = small, poorly fitted or top-dose-only effect, or another doubt; inactive = no such curve, though single readings can be large; an effect the other way counts as inactive or inconclusive.

SMILES	TDP1 block	uPA generation	miR-21 reporter	DT40 TDP1 CPT	DT40 TDP1 no CPT
COc1cccc(NC(=O)N(C)C[C@H]2Oc3cc(C#Cc4ccncc4)ccc3S(=O)(=O)N([C@H](C)CO)C[C@H]2C)c1	nt	nt	nt	16µM*	23µM*
COC(=O)CSc1nc(N)c(C#N)c(-c2ccc(O)cc2)c1C#N	3%	3%	0%	7%	16%
CCCNC(=O)c1cn(CC)c2cc(N3CCN(C(=O)c4ccco4)CC3)c(F)cc2c1=O	4%	6%	6%	?	21µM*
CCCCNC(=O)c1cn(CC)c2cc(N3CCN(C)CC3)c(F)cc2c1=O	4%	-1%	5%	-6%	-28%
CCn1cc(C(=O)O)c(=O)c2cc(F)c(N3CCN(C(=S)NC(=O)c4cccc(F)c4)CC3)cc21	4%	1%	-2%	?	-4%
CCn1cc(C(=O)NCc2cccc(F)c2)c(=O)c2cc(F)c(N3CCN(C(=O)c4ccco4)CC3)cc21	10%	-16%	-1%	5.8µM*	8.2µM*
CCn1cc(C(=O)NN)c(=O)c2cc(F)c(N3CCN(C)CC3)cc21	nt	2%	-5%	-27%	-19%
CCn1cc(C(=O)NCc2cccnc2)c(=O)c2cc(F)c(N3CCN(C(=O)c4ccco4)CC3)cc21	7%	-10%	18%	21µM*	21µM*
CC1=C(CC/C(C)=N/NC(N)=S)C(C)(C)CCC1	-2%	nt	1%	4µM*	3.2µM*
CN(C)C(=O)c1ccc(-c2ccc3ncnc(N(C)Cc4ccco4)c3c2)cc1	nt	nt	nt	5.8µM*	?
CN(Cc1ccco1)c1ncnc2ccc(-c3ccc4c(c3)OCO4)cc12	4%	-15%	nt	18µM*	16µM*
CN(Cc1ccco1)c1ncncc1-c1ccc2c(c1)OCO2	nt	nt	nt	?	-21%
CN(Cc1ccco1)c1ncnc2ccc(-c3ccc4c(ccn4C)c3)cc12	3%	?	nt	nt	nt
Cc1noc(C)c1-c1cc(N(C)Cc2ccco2)ncn1	nt	nt	nt	?	-10%
CN(Cc1ccco1)c1ncnc2ccc(-c3cccc(C#N)c3)cc12	-10%	nt	nt	23µM*	23µM*
Cc1noc(C)c1-c1ccc2ncnc(N(C)Cc3ccco3)c2c1	5%[56.1 µM]	nt	nt	?	12µM*
CN(Cc1ccco1)c1ncnc2ccc(-c3cccnc3)cc12	-7%[56.1 µM]	nt	nt	15µM*	18µM*
Cc1nc(SC(C)C(=O)Nc2ccccc2C)cc(-c2ccccc2)n1 (stereo not drawn)	2%	nt	-1%	15µM*	21µM*
Cc1nc(SCC(=O)Nc2ccccc2Cl)cc(-c2ccccc2)n1	-3%	nt	-2%	-5%	-18%
COc1ccc(NC(=O)C(C)Sc2cc(-c3ccccc3)nc(C)n2)cc1Cl (stereo not drawn)	-6%	nt	4%	21µM*	21µM*
COc1ccc(OC)c(NC(=O)c2cc(C3CC3)nc3c2c(C)nn3-c2ccc(C)cc2)c1	1%	nt	0%	26µM*	?
COc1ccc(NC(=O)c2cc(C)nc3c2c(C)nn3-c2ccc(C)cc2)cc1OC	5%	nt	-2%	?	15µM*
Cc1c(C(=O)NCc2ccccc2Cl)cccc1-n1cnc2cccnc21	6%	nt	-11%	18µM*	23µM*
COc1ccc(CCNC(=O)c2cc(C)nc3c2c(C)nn3-c2ccc(C)cc2)cc1OC	2%	nt	7%	?	?
COc1cccc(CNC(=O)c2cc(C)nc3c2c(C)nn3-c2ccc(C)cc2)c1	-12%	nt	12%	?	16µM*
(more compounds)
SMILES	TDP1 block	uPA generation	miR-21 reporter	DT40 TDP1 CPT	DT40 TDP1 no CPT
O=C(NCC(=O)N(CC1CCCO1)C1(C(=O)NC2CCCC2)CCCCC1)c1ccccc1 (stereo not drawn)	5%	2%	7%	-1%	-11%
COC(C(=O)Nc1ccnn1C1CCN(Cc2ccc(Cl)s2)CC1)c1ccccc1 (stereo not drawn)	4%	4%	11%	?	?
COc1ccc(NC(=O)c2cc(C3CC3)nc3c2c(C)nn3-c2ccccc2)cc1	8%	nt	0%	?	-51%
COc1cccc(CNC(=O)c2cccc(-n3c(C)nc4cccnc43)c2C)c1	3%	nt	3%	21µM*	?
Cc1nn(-c2ccccc2)c2nc(C3CC3)cc(C(=O)Nc3ccc(F)cc3)c12	-4%	nt	15%	16µM*	21µM*
CCOC(=O)c1cccc(NC(=O)c2cc3c(=O)n(Cc4ccccc4)ccc3nc2C)c1	7%	nt	18%	?	?
c1ccc(Oc2nc(-c3ccccn3)nc3ccccc23)cc1	10%	-9%	16%	2.6µM*	2.1µM*
COc1ccc(Oc2nc(-c3ccccn3)nc3ccccc23)cc1	11%	-18%	23%	3.3µM*	4.1µM*
Fc1ccc(Oc2nc(-c3ccccn3)nc3ccccc23)cc1	6%	-10%	8%	4.6µM*	5.8µM*
Cc1nc(Oc2ccccc2)c2ccccc2n1	4%	-12%	-5%	-23%	?
c1ccc(Oc2c3ccccc3nc3ccccc23)cc1	nt	-8%	24%	?	21µM*
CSCC(=O)N1CCC(n2nccc2NC(=O)c2ccc3c(c2)OCO3)CC1	3%	6%	-41%	5%	-6%
COc1ccc(C(=O)Nc2nc3ccccc3c(=O)[nH]2)cc1	-4%	nt	-24%	-23%	-30%
CCn1c(CN2CCCCC2)nc2cc(NC(=O)c3cc(OC)c(OC)c(OC)c3)ccc21	2%	nt	-2%	?	?
CCCn1c2ccccc2c2cnn(CC(=O)NCCOC)c(=O)c21	nt	-16%	-3%	-19%	-15%
CCCn1c2ccccc2c2cnn(CC(=O)Nc3ccccc3OC)c(=O)c21	-3%	nt	7%	23µM*	15µM*
CCCn1c2ccccc2c2cnn(CC(=O)Nc3cc(OC)c(OC)c(OC)c3)c(=O)c21	4%	nt	0%	?	?
CCCn1c2ccccc2c2cnn(CC(=O)NCc3cc(OC)ccc3OC)c(=O)c21	-2%	nt	0%	18µM*	?
CCCn1c2ccccc2c2cnn(CC(=O)NCCc3cc(OC)ccc3OC)c(=O)c21	4%	nt	-5%	?	16µM*
CCCn1c2ccccc2c2cnn(CC(=O)NCCCOC)c(=O)c21	nt	5%	-1%	-3%	-14%
Cc1cccc(N2CCN(C(=O)C(NS(=O)(=O)c3cccs3)c3ccccc3)CC2)c1C (stereo not drawn)	7%	-17%	16%	?	?
CCOCCCn1c(=NC(=O)c2cccs2)c(C#N)cc2c(=O)n3cccc(C)c3nc21	6%	-11%	-1%	?	?
O=C(Nc1nnc([C@@H]2C[C@H](O)[C@@H](CO)O2)s1)Nc1ccccc1C(F)(F)F	nt	nt	nt	-8%	-15%

Looked up by structure from above:
SMILES	TDP1 block	uPA generation	miR-21 reporter	DT40 TDP1 CPT	DT40 TDP1 no CPT
COc1cccc(CNC(=O)c2cccc(-n3c(C)nc4cccnc43)c2C)c1	3%	nt	3%	21µM*	?
CCCn1c2ccccc2c2cnn(CC(=O)NCc3cc(OC)ccc3OC)c(=O)c21	-2%	nt	0%	18µM*	?
c1ccc(Oc2c3ccccc3nc3ccccc23)cc1	nt	-8%	24%	?	21µM*
c1ccc(Oc2nc(-c3ccccn3)nc3ccccc23)cc1	10%	-9%	16%	2.6µM*	2.1µM*
Cc1nc(Oc2ccccc2)c2ccccc2n1	4%	-12%	-5%	-23%	?
CCOCCCn1c(=NC(=O)c2cccs2)c(C#N)cc2c(=O)n3cccc(C)c3nc21	6%	-11%	-1%	?	?
